Ends that are not written are not given here.
Test system: rat model of AMI
Assay: Rat model of AMI: heart function (hemodynamic) measurement
Settings: rats, 20 mg/kg i.v. at 0, 24 and 48 hours after surgery, measured 4 weeks after last injection; vs saline

WAAYRTHSVDYGRKKRRQRRR [NIMoEsh-Tat, WAAYRTHSVD-YGRKKRRQRRR]
left ventricular end diastolic pressure (FIG. 2f): rescued heart function after AMI

Reference: US20220362326A1, “INHIBITING ZD17-JNK I[…] A THERAPY FOR ACUTE MYOCARDIAL INFARCTION” (The University of British Columbia, priority 2019, published 2022)
